Assay results reported in PubChem BioAssay AID651718 (The Scripps Research Institute Molecular Screening Center, 2012).
This is a selection; strong and weak results do not stand in their true shares. Active and inactive are the calls of the source. Rule as the data show it: active = inhibition above about 4.5%; inactive = the rest.

These compounds were tested on Methionine sulfoxide reductase A (Bos taurus) (assay: bovine MsrA enzyme inhibitors, primary screen, biochemical, absorbance, HTS (AID 651718;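 also: 0% = vehicle wells with enzyme and 100% = reference inhibitor wells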)). Details: purified bovine MsrA, absorbance read-out; at 15.5 µM; active compounds read high.

| Structure (SMILES) | inhibition |
| --- | --- |
| CN(C(=O)Cc1ccccc1)C1CC[C@@]2(CCCO2)C[C@@H]1N1CCCC1 (stereo not given in full) | inactive: -0.18% |
| CCn1c(=O)n(C2CCN(CC3CCCCCCC3)C[C@H]2CO)c2ccccc21 (stereo not given in full) | inactive: -0.55% |
| Cc1ccc(NP(=O)(Oc2ccccc2F)Oc2ccccc2F)nc1 | inactive: -1.05% |
| CN(C(=O)Cc1ccc(Cl)c(Cl)c1)[C@H]1CCCC[C@@H]1N1CCCC1 | inactive: 1.39% |
| Cc1cc(SC(NC(=O)c2ccc(F)cc2)C(Cl)(Cl)Cl)ncn1 (stereo not given) | inactive: 0.48% |
| CCOP(=O)(Nc1ccccc1)OCC | inactive: 0.34% |
| O=P(Nc1nc2ccc(Cl)cc2s1)(c1ccccc1)c1ccccc1 | inactive: -0.26% |
| CN(C)P(=O)(N(C)C)n1c(Nc2ccccc2)nnc1-c1ccccc1 | inactive: -0.79% |
| CCCC1OP(N)(=O)OCC1CC (stereo not given) | inactive: 0.58% |
| CC(=O)Nc1ccc([As](=O)(O)O)cc1 | inactive: 1.37% |
| O=C(O)c1ccccc1[As](=O)(O)O | active: 81.7% |
| O=C(NC(Sc1ccncn1)C(Cl)(Cl)Cl)c1ccccc1 (stereo not given) | inactive: 1.32% |
| Oc1ccccc1CNc1ccccn1 | inactive: 0.77% |
| Nc1cc(N)c2nonc2c1[N+](=O)[O-] | inactive: 0.57% |
| CC(C)CC(=O)NC(Sc1ccc(Cl)cc1)C(Cl)(Cl)Cl (stereo not given) | inactive: 0.78% |
| CN1CCCC(OC(=O)C(c2ccccc2)c2ccccc2)C1 (stereo not given) | inactive: -0.3% |
| Clc1ccc(Cl)c(NC2=NCC(CBr)S2)c1 (stereo not given) | inactive: 2.73% |
| Cc1ccc(OP(=O)(Nc2nccs2)Oc2ccc(C)cc2)cc1 | inactive: 1.66% |
| COc1ccccc1OP(=O)(Nc1ccc(C)cn1)Oc1ccccc1OC | inactive: 2.05% |
| Cc1ccc(N/C(=N/P(=O)(N2CCOCC2)N2CCOCC2)N2CCOCC2)cc1 | inactive: -0.23% |
| CN(C(=O)Cc1ccc(Cl)c(Cl)c1)[C@H]1CCCC[C@H]1N1CCCC1 | inactive: 0.73% |
| NC(=O)c1cc([N+](=O)[O-])cc([N+](=O)[O-])c1N | inactive: 2.26% |

| Structure (SMILES) | inhibition |
| --- | --- |
| O=[N+]([O-])c1cc(Oc2ccc([N+](=O)[O-])cc2C(F)(F)F)cc([N+](=O)[O-])c1 | inactive: 1.17% |
| COc1ccc(N/C(=N/P(=O)(N2CCOCC2)N2CCOCC2)N2CCOCC2)cc1 | inactive: 2.32% |
| O=P1(N(CCCl)CCCl)Nc2ccccc2N1 | inactive: 2.62% |
| O=P1(N(CCCl)CCCl)OCCCN1CCCl (stereo not given) | inactive: -1% |
| COc1cc(I)ccc1[As](=O)(O)O | inactive: -0.66% |
| COc1ccc2nc(NP(=O)(c3ccccc3)c3ccccc3)sc2c1 | inactive: 0.17% |
| Cc1c2c(nc3ccccc13)SC(C(Cl)Cl)C2 (stereo not given) | inactive: 0.56% |
| Cc1cc(=O)[nH]c(N[N+](=O)[O-])n1 | inactive: -0.1% |
| O=C(OC1CN2CCC1CC2)C12CC3CC(CC(C3)C1)C2 (stereo not given) | inactive: 0.7% |
| CC(C)NC(=O)NP(=O)(Oc1ccccc1)Oc1ccccc1 | inactive: 1.97% |
| CCN(CC)C(=S)SC(NC=O)C(Cl)(Cl)Cl (stereo not given) | inactive: -0.58% |
| O=C(OC1CN2CCC1CC2)c1cccc2[nH]cnc12 (stereo not given) | inactive: 0.23% |
| ClCCSc1nnc(-c2cccnc2)o1 | inactive: -1.15% |
| COC(=O)C1(C)COP(=O)(N2CCCCCC2)OC1 (stereo not given) | inactive: -0.04% |
| CC(C)c1ccc(OP(=O)(Nc2ccccn2)Oc2ccccc2F)cc1 (stereo not given) | inactive: 0.78% |
| [N-]=[N+]=NC1CCCCC1NC(=O)c1cc([N+](=O)[O-])cc([N+](=O)[O-])c1 (stereo not given) | inactive: 1.1% |
| Cc1ccc(OP(=O)(Nc2ccc([N+](=O)[O-])cn2)Oc2ccc(C)cc2)cc1 | inactive: -0.66% |
| Cc1ccc2nc3c(c(C)c2c1)CC(C(Cl)Cl)S3 (stereo not given) | inactive: 1.62% |
| O=[N+]([O-])c1ccc(-c2cc([N+](=O)[O-])c(O)c([N+](=O)[O-])c2)cc1 | inactive: 3.61% |
| COc1cc(C(=O)NCC2(N3CCOCC3)CCCCC2)ccc1OCC(C)C | inactive: -0.19% |
| O=[As](O)(c1ccc(O)cc1)c1ccccc1O | inactive: 0.08% |
| C[As](=O)(O)c1cccc(C(=O)O)c1 | inactive: 0.1% |

| Structure (SMILES) | inhibition |
| --- | --- |
| O=P(Nc1ccccn1)(c1cccc2ccccc12)c1cccc2ccccc12 | inactive: 1.89% |
| Cc1cc(SC(NC=O)C(Cl)(Cl)Cl)ncn1 (stereo not given) | inactive: -0.46% |
| O=[N+]([O-])c1ccc(Nc2ccc(Oc3ccc([N+](=O)[O-])cc3[N+](=O)[O-])cc2)c([N+](=O)[O-])c1 | inactive: -0.2% |
| CCOC(=O)Nc1cccc([As](=O)(O)O)c1 | inactive: -0.75% |
| COP(=O)(OC)N1CC1c1ccccc1 (stereo not given) | inactive: -1.3% |
| Cc1cc(SC(NC(=O)c2ccccc2)C(Cl)(Cl)Cl)nc(C(C)C)n1 (stereo not given) | inactive: 0.33% |
| CCCCOc1ccc(C(=O)NCC2(N3CCCCC3)CCCCC2)cc1OC | inactive: -0.83% |
| CCOC(=O)Nc1ccc([As](=O)(O)O)c(O)c1 | inactive: -0.97% |
| O=C(O)C(O)c1ccc(N(CCCl)CCCl)cc1 (stereo not given) | inactive: 0.85% |
| CC1CCNP(=O)(N(CCCl)CCCl)O1 (stereo not given) | inactive: 1.52% |
| CCC(C)N(CC(C)C)C(=S)SC(NC(C)=O)C(Cl)(Cl)Cl (stereo not given) | inactive: -1.24% |
| O=C(OC1CN2CCC1CC2)c1cccc([N+](=O)[O-])c1 (stereo not given) | inactive: 1.52% |
| CCOC(=O)c1ccc(NC(=O)C(C)(CCl)SC)cc1 (stereo not given) | inactive: 0.65% |
| O=C(O)C(=O)c1ccc(N(CCCl)CCCl)cc1 | inactive: 2.06% |
| O=C(Nc1ccncc1[N+](=O)[O-])c1ccc([N+](=O)[O-])cc1[N+](=O)[O-] | inactive: 1.13% |
| O=C(COc1ccccc1)OC1CN2CCC1CC2 (stereo not given) | inactive: -0.48% |
| COC(=O)C1(C)COP(=O)(N2CCCC2)OC1 (stereo not given) | inactive: -0.55% |
| COP1(=S)c2c(C)nn(CCC#N)c2N=C(c2ccc(F)cc2)N1C (stereo not given) | inactive: -0.21% |
| CN(C(=O)Cc1ccc(Cl)c(Cl)c1)C1CCCC[C@@H]1N1CCCC1 (stereo not given in full) | inactive: -1.55% |
| CC(C)/C=N\N=C(\N)N[N+](=O)[O-] | inactive: 0.32% |
| CN(C(=O)Cc1ccc(Cl)c(Cl)c1)[C@@H]1CCCC[C@H]1N1CCCC1 | inactive: 1.89% |
